Data: publication PMC7441158 (Nature Communications, 2020)

The chains behind the UniProt entries cited, without tags or fusion partners. Residues count along the entry.
UniProt P32241, 31-457: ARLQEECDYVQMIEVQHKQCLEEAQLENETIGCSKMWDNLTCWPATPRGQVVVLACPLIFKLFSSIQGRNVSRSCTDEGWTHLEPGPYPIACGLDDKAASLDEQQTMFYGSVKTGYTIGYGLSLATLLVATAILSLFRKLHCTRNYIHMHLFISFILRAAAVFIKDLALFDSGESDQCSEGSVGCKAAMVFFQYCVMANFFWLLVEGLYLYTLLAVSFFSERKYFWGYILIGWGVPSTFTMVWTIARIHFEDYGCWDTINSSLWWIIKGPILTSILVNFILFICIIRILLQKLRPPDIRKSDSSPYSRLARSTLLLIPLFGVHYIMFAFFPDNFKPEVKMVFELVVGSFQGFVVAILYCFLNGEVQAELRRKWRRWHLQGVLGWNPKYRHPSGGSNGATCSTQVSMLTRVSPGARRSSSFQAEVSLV

Biological target: VIP receptor 1 (VPAC1) (Homo sapiens, UniProt P32241)
Assay: cAMP assay, COS-7 cells transiently expressing VPAC1
Format: cell-based

In the case of `CC[C@H](C)[C@H](NC(=O)[C@H](CO)NC(=O)[C@H](CC(N)=O)NC(=O)[C@H](CC(C)C)NC(=O)[C@H](Cc1ccc(O)cc1)NC(=O)[C@H](CCCCN)NC(=O)[C@H](CCCCN)NC(=O)[C@@H](NC(=O)[C@H](C)NC(=O)[C@H](CCSC)NC(=O)[C@H](CCC(N)=O)NC(=O)[C@H](CCCCN)NC(=O)[C@H](CCCNC(=N)N)NC(=O)[C@H](CC(C)C)NC(=O)[C@H](CCCNC(=N)N)NC(=O)[C@@H](NC(=O)[C@H](Cc1ccc(O)cc1)NC(=O)[C@H](CC(N)=O)NC(=O)[C@H](CC(=O)O)NC(=O)[C@@H](NC(=O)[C@H](Cc1ccccc1)NC(=O)[C@@H](NC(=O)[C@H](C)NC(=O)[C@H](CC(=O)O)NC(=O)[C@H](CO)NC(=O)[C@@H](N)Cc1c[nH]cn1)C(C)C)[C@@H](C)O)[C@@H](C)O)C(C)C)C(=O)N[C@@H](CC(C)C)C(=O)N[C@@H](CC(N)=O)C(N)=O` [VIP, vasoactive intestinal polypeptide, reference compound], the “Efficacy raw data for Glucagon-receptors, VPAC1 + VIP” value (“Efficacy raw data” for short) (replicate 1) is reported as 100, the “Efficacy raw data” value (replicate 2) is reported as 99.99 and the “Efficacy raw data” value (replicate 3) is reported as 100.
